Test results published in patent publication US4436662A, “Pyrrolo[3,4-d][2]benzazepinones” (Hoffmann-La Roche Inc., priority 1983, dated 1984).

Target: 3H-Diazepam binding, rat brain cortical fragments
Test: 3H-Diazepam Binding Assay
Details: Tris buffer, assayed in triplicate, read-out: IC50 (nM), concentration required to inhibit binding by 50%
Description: Brief-Description: Rat brain cortical fragments are prepared and the binding procedures performed as described by Mohler and Okada (Life Sciences, 20, 2101, 1977) except that Tris buffer is substituted for Krebs buffer. Drugs are assayed in triplicate.
Measurements Made: Radioactivity is measured by liquid scintillation counting.

CN1C(=O)CN=C(c2ccccc2F)c2cc([N+](=O)[O-])ccc21 [Flunitrazepam]
IC50: 1.8 nM
